Experiments:
HIV-2 (ROD) [1] = assay: Anti-HIV replication assay, HIV-2 (ROD) in wild-type CEM/0 cells; format: cell-based; conditions: CC50/EC50, HIV-2 (ROD) in CEM cells
Method: (§1) Inhibition of HIV-1(HE)- and HIV-2(ROD)-induced cytopathogenicity in wild-type CEM/0 CEM CD4^+ T-cells and thymidine kinase-deficient CEM/TK^– cell cultures was measured in microtiter 96-well plates containing ∼3 × 10^5 CEM cells/mL infected with 100 CCID50 of HIV per milliliter and containing appropriate dilutions of the test compounds. After 4–5 days of incubation at 37 °C in a CO2-controlled humidified atmosphere, virus-induced cellular effects and syncytia cell formation were examined microscopically.

HIV-2 (ROD) [2] = assay: Anti-HIV replication assay, HIV-2 (ROD) in thymidine kinase-deficient CEM/TK– cells; format: cell-based; conditions: CC50/EC50, HIV-2 (ROD) in CEM/TK– cells
Method: as §1

What does the source list for `CCCCOP(=O)(OCCCC)OP(=O)(O)OP(=O)(O)OP(=O)(O)OC[C@@H]1C=C[C@H](n2cc(C)c(=O)[nH]c2=O)O1` [4a, δ-(Alkyl-C4; alkyl-C4)-d4T4P]?
selectivity index (SI) (HIV-2 (ROD) [1]): >625; selectivity index (SI) (HIV-2 (ROD) [2]): >6

From publication PMC10895676, “Antiviral Activity of Lipophilic Nucleoside Tetraphosphate Compounds” (Journal of Medicinal Chemistry, 2024)
